In one series the test system is NRK 153 Cl 7 cells. Put plainly: Cellular AdoHcy and AdoMet levels in NRK 153 Cl 7 cells. The format is cell-based. Particulars: Rattus norvegicus.
The test system of a further series is mouse L cells. Put plainly: Cellular AdoHcy and AdoMet levels in mouse L cells. The format is cell-based. The settings on record: 30 μM, twenty-four hours.
A further series relates to HL-23 C type virus. Put plainly: HL-23 foci formation (oncogenic transformation) in normal rat kidney cells.

SMILES strings stand for the structures. Like-named read-outs stand apart in the source and are kept apart here.

The record followed here is US4386093A, “(±)3-Deazaaristeromycin and uses” (The United States of America as represented by the …, priority 1981, dated 1983).

For `Nc1nccc2c1ncn2[C@@H]1C[C@H](CO)[C@@H](O)[C@H]1O` (relative stereo) [(±)3-deazaaristeromycin, (±)-4-amino-1-[(1α, 2β, 3β, 4α)-2,3-dihydroxy-4-(hydroxymethyl)-cyclopentyl]imidazo[4,5-c]pyridine], the fold induction at 1 µM was 5 with NRK 153 Cl 7 cells (2 h, two hours, read-out: Increase in AdoHcy); 30 with NRK 153 Cl 7 cells (24 hours, read-out: Increase in AdoHcy); 1.3 in the series with NRK 153 Cl 7 cells (read-out: Increase of AdoMet). For the same compound, the “Level of AdoMet” value with mouse L cells is on record as “returned to normal”. Also, the “Selectivity ratio (highest noncytotoxic concentration over lowest effective concentration)” value in the series with HL-23 C type virus is greater than 8.
